{"source": "paper PMC7395062", "about": "“Multiparametric assessment of mitochondrial respiratory inhibition in HepG2 and RPTEC/TERT1 cells using a panel of mitochondrial targeting agrochemicals” (Archives of Toxicology, 2020)", "test_system": "CII/CIII (succinate dehydrogenase / cytochrome bc1 complex)", "assay_type": "cell-based, human", "procedure": "The test compound is injected and OCR is measured. […] OCR is measured for the second time. […] A third and final OCR measurement is conducted.\nCompounds were injected sequentially and OCR was measured twice. […] ETC inhibition is determined in decreased OCR.\nAll results are average of 2–3 independent experiments."}
{"compound": "CO/N=C(/C(=O)OC)c1ccccc1COc1ccccc1C", "note": "[Kresoxim-methyl]", "values": [{"measurement": "ETC-complex specificity pattern (CII/CIII)", "result": "conformed to this pattern"}]}
